Molecular target: Sodium-dependent dopamine transporter (Rattus norvegicus, UniProt P23977)
Experiment: Binding affinity against Dopamine transporter using [3H]WIN-35 428 in rat striatum
Assay type: tissue-based

Amino acid sequences for entries named in this document (tags omitted).
UniProt P23977, whole entry: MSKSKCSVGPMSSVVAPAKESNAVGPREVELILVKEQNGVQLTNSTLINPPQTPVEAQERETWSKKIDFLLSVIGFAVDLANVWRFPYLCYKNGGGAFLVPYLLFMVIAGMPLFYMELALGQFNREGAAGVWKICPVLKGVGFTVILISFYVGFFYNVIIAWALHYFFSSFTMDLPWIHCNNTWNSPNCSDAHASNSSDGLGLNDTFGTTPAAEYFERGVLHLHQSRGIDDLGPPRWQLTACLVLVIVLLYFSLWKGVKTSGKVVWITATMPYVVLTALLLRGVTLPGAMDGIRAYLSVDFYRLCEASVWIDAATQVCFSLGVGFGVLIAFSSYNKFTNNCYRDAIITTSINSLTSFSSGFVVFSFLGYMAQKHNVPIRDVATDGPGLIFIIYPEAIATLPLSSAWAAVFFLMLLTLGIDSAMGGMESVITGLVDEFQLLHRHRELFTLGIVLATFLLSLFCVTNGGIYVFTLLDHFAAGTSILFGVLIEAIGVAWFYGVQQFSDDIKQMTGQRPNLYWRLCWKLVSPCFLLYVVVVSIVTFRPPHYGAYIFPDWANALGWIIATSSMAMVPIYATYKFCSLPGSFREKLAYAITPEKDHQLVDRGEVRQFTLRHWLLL

Cc1noc([C@H]2C(c3ccc(Cl)cc3)C[C@H]3CCC2N3C)n1 (stereo partly specified)
IC50: 4.05 nM

Source: ChEMBL document CHEMBL1129370, “Synthesis, ligand binding, and quantitative structure-activity relationship study of 3 beta-(4'-substituted phenyl)-2 beta-heterocyclic tropanes: evidence for an electrostatic interaction at the 2 beta-position” (J Med Chem, 1996)
